{
  "sequences": {"note": "Chains of the proteins cited; added tags and fusions are not shown.", "UniProt P33261, whole entry": "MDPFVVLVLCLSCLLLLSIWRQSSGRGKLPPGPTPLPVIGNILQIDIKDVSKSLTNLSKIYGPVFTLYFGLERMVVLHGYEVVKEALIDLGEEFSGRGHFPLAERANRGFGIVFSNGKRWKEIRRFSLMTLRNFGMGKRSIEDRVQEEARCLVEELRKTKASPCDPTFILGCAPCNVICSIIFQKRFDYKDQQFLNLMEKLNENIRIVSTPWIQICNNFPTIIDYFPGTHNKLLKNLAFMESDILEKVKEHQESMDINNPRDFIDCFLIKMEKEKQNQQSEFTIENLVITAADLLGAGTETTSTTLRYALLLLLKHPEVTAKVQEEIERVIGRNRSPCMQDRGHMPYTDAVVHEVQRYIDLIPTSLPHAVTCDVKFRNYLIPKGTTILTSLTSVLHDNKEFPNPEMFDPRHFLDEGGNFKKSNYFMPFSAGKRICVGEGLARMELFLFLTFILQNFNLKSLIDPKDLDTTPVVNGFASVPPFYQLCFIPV"},
  "source": "paper PMC11514582",
  "about": "“Leveraging the Aggregated Protein Dye YAT2150 for Malaria Chemotherapy” (Pharmaceutics, 2024)",
  "biological_target": "CYP2C19 (Homo sapiens, UniProt P33261)",
  "conditions": "at 3.3 µM; tested in parallel",
  "data": [
    {"smiles": "N[C@@H]1C[C@H]1c1ccccc1", "note": "(racemic) [Tranylcypromine]", "values": [
      {"measurement": "CYP2C19 inhibition, reference compound", "result": 43, "unit": "%"}
    ]}
  ]
}
